Test: Solubility of ICG HIP complexes in ICell (visual)
Conditions: ICG or its HIP complex with the named co-ion in SuBen:GTO:EtOH (60:25:15) ICell, about 2.5 mg ICG per 1 g ICell
Experimental: For each co-ion, the chloroform phase was isolated and transferred to new glass vials. Chloroform was dried under a gentle flow of nitrogen.
1 g of ICell was added to each vial containing the previously isolated ICG HIP complexes. In addition, 1 g of ICell was added to a vial containing 2.5 mg of native ICG.

CC[N+](CC)(CC)CC.[Br-] [Tetraethyl ammonium bromide]
solubility in ICell: easily solubilized
